According to patent US9180129B2, “Combination of lapatinib and trametinib” (NOVARTIS AG, priority 2010, dated 2015):

Tested on: KPL4
Test: Cell growth inhibition assay, KPL4 (breast HER2+)
Format: cell-based, Human
Conditions: 3 days, read-out: Single agent IC50 (μM), mean ± STD
Protocol: Human tumor cell lines from breast cancer, AU565, BT474, COLO824, HCC1419, HCC1954, HCC2218, JIMT1, MDA-MB-175VII, MDA-MB-453, SK-BR-3 and SUM149, colorectal cancer, LS174T, NCI-H508, NCI-H747, SW403 and T84, melanoma, A375S2, CHL-1 and SK-MEL-5; pancreatic cancer, Capan-1, HPAF-11 and SUIT2, and bladder cancer, 647V, BFTC-905 and SW780 were cultured in RPMI 1640 media containing 10% FBS; BT-474-J4, a breast cancer cell line acquired resistance to Compound A was cultured in RPMI 1640 media containing 10% FBS and 1 μM Compound A. KPL4 breast cancer line was cultured in DMEM containing 5% FBS. All lines were kept in a humidified incubator at 37° C. in 95% air and 5% CO2. […]
All cells were cultured for a minimum of 72 hours prior to cell plating. […] ATP levels were determined by adding Cell Titer Glo® reagent (Promega) according to the manufacturer's protocol. Briefly, Cell Titer Glo® reagent was added to each plate, incubated for 20 minutes then the luminescent signal was read on the SpectraMax L plate reader with a 0.5 sec integration time.
Inhibition of cell growth was estimated after treatment with compound or a combination of compounds for three days and comparing the signal to cells treated with vehicle (DMSO). Cell growth was calculated relative to vehicle (DMSO) treated control wells. […]

For CS(=O)(=O)CCNCc1ccc(-c2ccc3ncnc(Nc4ccc(OCc5cccc(F)c5)c(Cl)c4)c3c2)o1 [Compound A, N-{3-Chloro-4-[(3-fluorobenzyl)oxy]phenyl}-6-[5-({[2-(methanesulphonyl)ethyl]amino}methyl)-2-furyl]-4-quinazolinamine], the IC50 was 0.568 ± 0.083 µM.
